In US5773569A (Affymax Technologies N.V., priority 1995, dated 1998):

Molecular target: T1, truncated human erythropoietin receptor cell line (Homo sapiens, UniProt P19235)
T1 sequence (P19235 25-468 limits assumed): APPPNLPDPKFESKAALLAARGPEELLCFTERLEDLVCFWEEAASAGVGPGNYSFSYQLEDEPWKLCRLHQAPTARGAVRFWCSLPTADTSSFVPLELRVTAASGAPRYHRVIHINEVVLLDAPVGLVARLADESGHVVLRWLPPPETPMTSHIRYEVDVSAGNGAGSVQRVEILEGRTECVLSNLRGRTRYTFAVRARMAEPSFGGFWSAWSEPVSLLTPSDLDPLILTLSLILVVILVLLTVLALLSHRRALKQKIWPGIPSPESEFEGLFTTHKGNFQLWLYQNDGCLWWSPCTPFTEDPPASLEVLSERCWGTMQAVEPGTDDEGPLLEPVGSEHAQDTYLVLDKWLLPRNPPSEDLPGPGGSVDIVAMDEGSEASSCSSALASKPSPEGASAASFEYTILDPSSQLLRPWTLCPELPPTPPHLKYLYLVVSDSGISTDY
Experiment: cell-based

With `CC(C)C[C@@H]1NC(=O)[C@@H]2CCCN2C(=O)CNC(=O)[C@H](Cc2ccccc2)NC(=O)[C@H](Cc2c[nH]cn2)NC(=O)[C@@H](NC(=O)[C@H](CO)NC(=O)[C@H](Cc2ccc(O)cc2)NC(=O)[C@@H](NC(=O)CNC(=O)CN)[C@@H](C)O)CSSC[C@@H](C(=O)N[C@@H](CCCCN)C(=O)N2CCC[C@H]2C(=O)N[C@@H](CCC(N)=O)C(N)=O)NC(=O)[C@H](C(C)C)NC(=O)[C@H](Cc2c[nH]c3ccccc23)NC(=O)[C@H]([C@@H](C)O)NC1=O` [RWJ 61596] as the compound, how does the EC50 read?
Its EC50 is 20 nM.
